Test: Gaboxadol plasma concentration profiles: single-dose crossover PK study, oral capsules 2.5-20 mg and 10 mg I.V.
Details: geometric mean N=10

In the case of `Oc1noc2c1CCNC2` [gaboxadol, 4,5,6,7-tetrahydroisoxazolo [5,4-c] pyridine-3-ol], the “Ccoi (in Cmax row)” value is reported as 212 ng/mL.

From patent US20220110917A1 (priority 2018, published 2022)
